Reference: patent US20260076970A1, “CANCER TREATMENT USING MTDP INHIBITORS AND PLK1 INHIBITORS” (Cardiff Oncology, Inc., priority 2022, published 2026)

Tested on: cell lines, from both solid and hematologic tumors
Assay: proliferation assays
Conditions: large number of cell lines

For CN1CCN(c2ccc(OC(F)(F)F)c(Nc3ncc4c(n3)-c3c(c(C(N)=O)nn3CCO)CC4)c2)CC1 [onvansertib, 1-(2-hydroxyethyl)-8-{[5-(4-methylpiperazin-1-yl)-2-(trifluoromethoxy)phenyl]amino}-4,5-dihydro-1H-pyrazolo[4,3-h]quinazoline-3-carboxamide], the “potency in proliferation assays” value was “low nanomolar activity”.
